# Screening results from PubChem BioAssay.
# This is a sample that favours compounds with a hit; in the whole collection about 3.7% have one here.
# IL2 activator – IL-2 activation; IL-2 activation reporter assay, cell-based qHTS; stimulated with anti-CD3/CD4/CD28 beads; in transgenic mouse T cells; activation, % (series mostly up to about 46 µM); 360,000 compounds, 0.065% hits; AID 652025; in the data active = activation above about 50%; inconclusive = mostly about 30% to 49%
#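 Readout is EGFP and DsRed signal by fluorescent plate cytometry after 18 h at 37 degrees C. Transgenic mouse T cells (750/well) received compound for 60 min before bead stimulation (anti-CD3, anti-CD4, anti-CD28); memory T cells served as non-tolerant control.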
# ClpP mod – qHTS Assay for Activators of ClpP. purified B. subtilis ClpP, FRET peptide cleavage, 20 min. Potency, µM (series often up to 57.5 µM). 340,000 compounds, 1.9% hits. AID 651965, 2013; active = well fitted falling curve with a large enough effect; inconclusive = small, poorly fitted or top-dose-only effect; inactive = no such curve, though single readings can be large or run the other way; note: the source files actives as falling curves though it sought activators and does not explain the sign; nearly all actives have a fitted effect of over 65% in size
#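 Buffer: 100 mM Tris/HCl pH8, 100 mM KCl, 0.05% low protease BSA, 2.5% glycerol, 0.01% Tween-20. ClpP 10 microg/mL final; 20 min RT; delta FRET normalized to ADEP and DMSO controls.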
# Nrf2 inh – blocks Nrf2 signaling | A549 ARE-Fluc reporter, luciferase luminescence, 18-24 h | Potency, µM (highest dose often 46 µM), hits mostly inhibitors | 360,000 compounds, 2.1% hits | AID 504444; note: nearly all actives have a fitted effect of over 60% in size
#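 Nrf2 function is reported as luminescence of an ARE-controlled luciferase in A549 cells. Compounds were tested at several concentrations, and a CellTiter-Fluor read on the same wells flagged cytotoxicity.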
# A549 viability – counter-screen for Nrf2 inhibitors: cytotoxicity in A549 cells; A549 ARE-Fluc cells, CellTiter-Fluor viability, 18-24 h; Potency, µM (highest dose often 46 µM), hits mostly inhibitors; 390,000 compounds, 0.16% hits
#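 A549 ARE-Fluc cells in 5% FBS OPTI-MEM, 5000 cells/well, rested 2 h then exposed to compounds in concentration-response for 18-24 h at 37 °C. Viability by CellTiter-Fluor fluorescence (Ex 405/Em 525) after 30 min; luciferase luminescence (BugLite, 15 min, RT) read afterwards.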
# miR-21 reporter – miR-21 reporter, rising signal; HeLa miR-21 FLuc reporter, luciferase, 48 h; Potency, µM (titrated, usually from 38.3 µM); 340,000 tested, under 10 active; AID 2288; active = well fitted rising curve with a large enough effect; inconclusive = small, poorly fitted or top-dose-only effect; inactive = no such curve, though single readings can be large or run the other way;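 also: miR-21 action dims this reporter so a rising signal means less miR-21 action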
#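 HeLa miR-21-FLuc reporter line, endogenous miR-21; 2000 cells/well in DMEM/10% FBS; compound titration up to ~40uM final, 48 h, 37 degree Celsius; luciferase detection reagent, 15 min lysis, CCD luminescence.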
# Nrf2 ARE act – activates Nrf2 signaling. Potency, µM (top dose mostly 46.1 µM), most hits filed as activators. AREc32 ARE-luciferase reporter (MCF7-derived line), luminescence, 24 h. AID 624171. 410,000 compounds, 0.31% hits; note: nearly all actives have a fitted effect of over 65% in size
#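 AREc32 cells carrying an ARE-driven firefly luciferase reporter were seeded at 1000 cells/well in OPTI-MEM with 5% FBS, then exposed to compound for 24 hr at 37 deg C. Luminescence was read with Steady-Glo after 30 min at RT.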
# Numbers stand for hits; - = inactive; ? = inconclusive; . = not tested or not shown. Unless noted, calls come from the whole dose curve; as a rule, active = well fitted curve in the direction sought with a large enough effect; inconclusive = small, poorly fitted or top-dose-only effect, or another doubt; inactive = no such curve, though single readings can be large; an effect the other way counts as inactive or inconclusive.
SMILES,IL2 activator,ClpP mod,Nrf2 inh,A549 viability,miR-21 reporter,Nrf2 ARE act
CC(=O)Nc1ccc(-c2csc(NC(=O)CC(NC(C)=O)c3ccccc3)n2)cc1 (stereo not drawn),-,.,-,-,-,-
COc1ccccc1C(=O)COC(=O)c1cccs1,-,-,?,-,.,8.91µM
COc1ccc(Cl)cc1NC(=O)N1CCN(Cc2cc(=O)n3nc(-c4ccccc4)sc3n2)CC1,.,-,.,-,-,-
CC(C)c1ccc(NC(=O)c2cc(Br)ccc2Br)cc1,-,-,-,?,-,7.08µM
CCc1ccc(NC(=O)c2cc(Br)ccc2Br)cc1,.,.,.,.,-,.
CCOC(=O)c1c(C)[nH]c(C)c1C(=O)COC(=O)/C=C/c1ccc(OC)cc1,-,15.8µM,-,-,.,-
Cc1ccc(N2CCN(C(=O)c3c(C)oc4ncnc(N5CCCCC5)c34)CC2)c(C)c1,.,-,?,-,-,-
CCC1CCCCN1C(=O)c1ccc([N+](=O)[O-])o1 (stereo not drawn),-,.,-,-,-,20µM
CC1CCCN(C(=O)c2ccc([N+](=O)[O-])o2)C1 (stereo not drawn),-,-,-,-,-,?
CC(=O)Nc1ccc2[nH]c3ccccc3c2c1,-,-,-,-,-,-
Cc1cc(=O)c2cc(C(=O)Nc3ccccc3C)ccc2[nH]1,.,-,20.6µM,-,-,-
CC(=O)Nc1ccc2[nH]c(C)cc(=O)c2c1,-,31.6µM,-,-,-,-
Cc1ccc(CN(Cc2ccco2)c2cnc(S(C)(=O)=O)nc2C(=O)Nc2ccccc2Br)o1,.,-,-,-,-,-
CCN1CCC(N(Cc2cccc(OC)c2)C(=O)Nc2ccc(C)cc2Cl)CC1,.,-,-,-,-,-
CN(c1ccc(C(=O)N2CCCCCC2)cc1)S(=O)(=O)c1ccc(Cl)cc1,-,-,23.1µM,-,-,-
CCOc1ccc(S(=O)(=O)Nc2cccc(Cl)c2)cc1,-,-,13µM,?,.,-
COc1ccc(NS(=O)(=O)c2ccc(C(=O)N3CCN(Cc4ccccc4)CC3)cc2)cc1,-,-,20.6µM,-,-,-
COc1ccc(S(=O)(=O)NCc2ccc(C(=O)N3CCN(Cc4ccccc4)CC3)cc2)cc1,-,-,?,-,-,-
CCOc1ccc(NS(=O)(=O)c2ccc(NS(=O)(=O)c3ccccc3)cc2)cc1,-,-,-,-,-,-
CCOc1ccc(NS(=O)(=O)c2ccc(C(=O)N3CCCCCC3)cc2)cc1,-,-,23.1µM,-,.,-
CN(c1ccc(C(=O)N2CCOCC2)cc1)S(=O)(=O)c1ccc(Cl)cc1,-,-,?,-,-,-
O=C(NC1CC(=O)N(c2ccccc2)C1)c1ccc(S(=O)(=O)N2CCCC2)cc1 (stereo not drawn),.,-,.,-,-,-
Cc1cccc(-c2nc3scc(CCNC(=O)c4ccccc4Cl)n3n2)c1,.,-,.,-,-,?
Cc1ccc(S(=O)(=O)/N=C(/c2ccc(F)cc2)N2CCCCC2)cc1,-,31.6µM,-,-,-,-
Cc1ccc(NS(=O)(=O)c2ccc(C(=O)N3CCCCCCC3)cc2)cc1,-,-,20.6µM,-,-,-
SMILES,IL2 activator,ClpP mod,Nrf2 inh,A549 viability,miR-21 reporter,Nrf2 ARE act
C=CCNC(=O)COc1ccc(S(=O)(=O)Nc2ccc(OCC)cc2)cc1,-,12.6µM,-,-,-,-
CCOc1ccc(NS(=O)(=O)c2ccc(C(=O)N3CCCC(C)C3)cc2)cc1 (stereo not drawn),-,.,7.31µM,-,.,-
Cc1ccc(S(=O)(=O)/N=C(/c2ccc(F)cc2)N2CCCC2)cc1,-,-,-,-,-,-
CC(C)C(NC(=O)c1ccc(C(C)(C)C)cc1)C(=O)N1CCCC1 (stereo not drawn),-,.,-,-,-,-
CCOc1ccc(C(=O)NC(C(=O)N2CCC2)C(C)C)cc1 (stereo not drawn),-,28.2µM,-,-,.,-
CCc1ccc(/C=N/NC(=O)c2cc(C)on2)s1,-,2.82µM,-,-,-,-
